For assay [1], the system named is Integrase (Human immunodeficiency virus 1). In words: Tested in vitro against strand -transfer (ST) activity in the presence of Mg2+ as the cationic cofactor.
For assay [2] the test system is unchanged. In words: Compound was tested in vitro against strand -transfer (ST) activity in the presence of Mg2+ as the cationic cofactor at a concentration of 200 uM; NA is Not Active.

Activity calls are given as the source filed them. No cut-off for these calls is given here.

From ChEMBL document CHEMBL1133186, “A new class of HIV-1 integrase inhibitors: the 3,3,3', 3'-tetramethyl-1,1'-spirobi(indan)-5,5',6,6'-tetrol family” (J Med Chem, 2000) come the findings set out here.

As for `CC1(C)CC2(CC(C)(C)c3cc(O)c(O)cc32)c2cc(O)c(O)cc21`, in assay [1], the inhibition result is “inactive”.

On to `CC1(C)CC2(CC(C)(C)c3cc(OS(=O)(=O)O)c(OS(=O)(=O)O)cc32)c2cc(OS(=O)(=O)O)c(OS(=O)(=O)O)cc21`, for which the inhibition result in assay [1] is “inactive”.

Regarding `CC1(C)CC2(CC(C)(C)c3ccc(O)cc32)c2cc(O)ccc21`, the NA result in assay [2] was “inactive”.

For `CC1(C)CC2(CC(C)(C)c3ccc(O)c(NC(N)=O)c32)c2cc(O)c(NC(N)=O)cc21` (centres undefined), the NA entry in assay [2] is “inactive”.
